Holding throughout (assay): microscale thermophoresis
Background: MST reads how a fluorescent partner responds to local heating, with and without ligand.

One assay has as its target T1, Aβ17-42 (Homo sapiens).
T1 chain: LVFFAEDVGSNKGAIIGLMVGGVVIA

For another assay, the target named is pS8-Aβ42 (Homo sapiens, phosphoSer8).
The target in the next assay is Aβ42 (Homo sapiens).

In article PMC10954796 (2024) one finds Kd data, which are given here for one molecule.

The Kd is the equilibrium constant for the complex coming apart. The low end stands for higher affinity, the high end for lower affinity.

B1: sRAGE ECD (protein)
chain: AQNITARIGEPLVLKCKGAPKKPPQRLEWKLNTGRTEAWKVLSPQGGGPWDSVARVLPNGSLFLPAVGIQDEGIFRCQAMNRNGKETKSNYRVRVYQIPGKPEIVDSASELTAGVPNKVGTCVSEGSYPAGTLSWHLDGKPLVPNEKGVSVKEQTRRHPETGLFTLQSELMVTPARGGDPRPTFSCSFSPGLPRHRALRTAPIQPRVWEPVPLEEVQLVVEPEGGAVAPGGTVTLTCEVPAQPSPQIHWMKDGVPLPLPPSPVLILPEIGPQDQGTYSCVATHSSHGPQESRAVSISIIEPGEEGPTAGSVGGSGLGTLA
B1: the Kd with Aβ17-42 is 10 µM; with pS8-Aβ42, 7 µM; with Aβ42, 1 µM.
